# Values quoted from earlier work as cited in PMC8868332, “Creating Robust Antimicrobial Materials with Sticky Tyrocidines” (Antibiotics, 2022).
# Details: general character summarised in Table 2; no reference given; cited from earlier work
# Text: Table 2 Summary of the compounds used to compare with the Trc in creating robust non-covalent antimicrobial materials. | column: Character
substance,measurement,value
Magainin 2,Haemolytic character (Character),non-haemolytic
same,Solubility (Character),water-soluble
PGLa,Haemolytic character (Character),haemolytic
same,Solubility (Character),water-soluble
gramicidin S [GS],Haemolytic character (Character),haemolytic
same,Solubility (Character),water-soluble
